Laboratory results published in paper PMC12259427 (Frontiers in Pharmacology, 2025).

What was measured:
[1] = in vivo; cited from earlier work
[2] = in vivo
plasma albumin = conditions: ref Zhou et al., 2019; Boztug et al., 2017; Yamaguchi et al., 2023; cited from earlier work
[3] = human, in vivo; cited from earlier work

Q: For teicoplanin, which “CL, previously reported values” [1] is on record?
A: The value was 0.38 to 1.03 L/h.

Q: And the elimination half-life [1]?
A: The elimination half-life was 30 to 180 h.

Q: And the “CL, final model estimate” value ([2]; human)?
A: The value was 0.98 L/h.

Q: And the V in males ([2]; human)?
A: The V in males was 90.43 L.

Q: And the “V in the absence of CRRT” value ([2]; human)?
A: The value was 76.68 L.

Q: And the “V in the presence of CRRT” value ([2]; human)?
A: Its value is 37.87 L.

Q: What about the “V, final model estimate” value ([2]; human) of the same substance?
A: Its value is 108.69 L.

Q: And the “CL, bootstrap median” value [2]?
A: The value was 0.97 L/h.

Q: And the V in females [2]?
A: Its V in females is 31.85 L.

Q: What about the “V lower in the presence of CRRT than in the absence” value [2] of the same substance?
A: Its value is 102.48%.

Q: What about the “V, bootstrap median” value [2] of the same substance?
A: The value was 107.89 L.

Q: What about the “θCRRT,V, bootstrap median” value [2] of the same substance?
A: Its value is −0.70.

Q: And the “θCRRT,V, final model estimate” value [2]?
A: The value was −0.71.

Q: What about the “θSex,V, bootstrap median” value [2] of the same substance?
A: Its value is −1.07.

Q: What about the “θSex,V, final model estimate” value [2] of the same substance?
A: The value was −1.07.

Q: What about the “protein binding to plasma albumin” value (plasma albumin) of the same substance?
A: The value was “over 90%”.

Q: And the “overall mean Cmin” value [3]?
A: Its value is 9000 ng/mL.

Q: And the “share of Cmin lower than expected (<10 μg/mL)” value [3]?
A: Its value is 14.1%.
